Earlier results in patent publication US7622475B2, “EP2 agonists” (Pfizer Inc, priority 2006, dated 2009).

Sequences of proteins named here, by UniProt entry; tags and fusion partners are left off. A change or cut given only in a name is not applied to a line headed by its entry.
UniProt P43116: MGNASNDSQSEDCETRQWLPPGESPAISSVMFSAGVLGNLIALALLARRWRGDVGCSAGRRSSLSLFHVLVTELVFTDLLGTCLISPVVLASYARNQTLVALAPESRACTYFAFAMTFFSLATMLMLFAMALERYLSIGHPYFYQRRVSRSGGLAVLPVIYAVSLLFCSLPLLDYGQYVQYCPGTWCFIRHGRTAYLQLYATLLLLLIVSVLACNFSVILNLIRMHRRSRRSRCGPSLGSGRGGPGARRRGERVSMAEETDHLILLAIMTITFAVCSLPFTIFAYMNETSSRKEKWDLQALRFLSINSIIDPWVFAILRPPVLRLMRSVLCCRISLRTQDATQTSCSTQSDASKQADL

Target: EP2 (Homo sapiens, UniProt P43116)
Set-up: expressed in transfected cells; host or cells: COS cells
Conditions: COS cells transfected with the human EP2 receptor; read-out: EC50 for the stimulation of cAMP; cited from earlier work

CCCCC[C@H](O)/C=C/[C@H]1[C@H](O)CC(=O)[C@@H]1C/C=C\CCCC(=O)O [PGE2, prostaglandin E2]
EC50: ~43 nM
